Test results published in US20240173419A1, “CDK2 DEGRADERS AND USES THEREOF” (Kymera Therapeutics, Inc., priority 2022, published 2024).

Target: CDK2 (Homo sapiens, UniProt P24941)
Test: CDK2 degradation in MKN1 cells (AlphaLISA)
Conditions: for CDK2 degradation 14 h: Average Dmax %: 14 h incubation; for DC50: read-out: CDK2 degradation 14 h: Mean external-Abs DC50, 14 h incubation
How it was run: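 DC50 from four-parameter logistic fit of AlphaLISA CDK2 signal, corrected for no-cell wells. Lysates came from MKN1 cells, 2e4 per well, exposed 14 h at 37° C to compound at 0.001 nM-10 μM (1:5 series, 11 doses) in 0.1% DMSO.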

Structure (SMILES)	CDK2 degradation 14 h: Average Dmax %	DC50
Cc1cc(S(=O)(=O)NC23CCC(CN4CCN(c5ccc(C6CCC(=O)NC6=O)c(Cl)c5)C[C@@H]4C)(CC2)OC3)ccc1Nc1ncc(C(F)(F)F)c(N2CCC[C@](C)(O)C2)n1 (stereo partly drawn)	A (A (>75% o))	< 100 nM
Cc1cc(S(=O)(=O)N[C@H]2CC[C@H](CN3CCN(c4ccc(C5CCC(=O)NC5=O)cc4)C(=O)C3)CC2)ccc1Nc1ncc2c(n1)N([C@@H]1CCC[C@@H](O)C1)C(=O)C21CC1 (stereo partly drawn)	A (A (>75% o))	< 100 nM
Cc1cc(S(=O)(=O)Nc2ccc(CN3CCN(c4ccc(C5CCC(=O)NC5=O)c(Cl)c4)CC3)cc2)ccc1Nc1ncc(C(F)(F)F)c(N2CCC[C@](C)(O)C2)n1 (stereo partly drawn)	B (B (>50% -75%))	< 100 nM
Cc1cc(S(=O)(=O)C2CC3(CCN(CC4CCN(c5ccn(C6CCC(=O)NC6=O)c(=O)c5)CC4)CC3)C2)ccc1Nc1ncc2ccc(=O)n(C3CCCC3)c2n1 (stereo not drawn)	A (A (>75% o))	< 100 nM
Cc1cc(S(=O)(=O)NCCOCCOCCNC(=O)c2ccc(Cl)c(N3CCC(=O)NC3=O)c2)ccc1Nc1ncc2cc(Cl)c(=O)n(C3CCCC3)c2n1	C (C (>25% -50%))	> 1000 nM
Cc1cc(S(=O)(=O)NCCCCCNC(=O)COc2ccc(C3CCC(=O)NC3=O)cc2)ccc1Nc1ncc2cc(Cl)c(=O)n(C3CCCC3)c2n1 (stereo not drawn)	A (A (>75% o))	100 to 500 nM
C[C@@]1(O)CCC[C@H]1n1c(=O)c(C(F)F)cc2cnc(NC3CCN(S(=O)(=O)CCCCCCNc4cccc5c4C(=O)N(C4CCC(=O)NC4=O)C5=O)CC3)nc21 (stereo partly drawn)	B (B (>50% -75%))	< 100 nM
Cc1cc(S(=O)(=O)N[C@H]2CC[C@H](CN3CCN(c4ccc(C5CCC(=O)NC5=O)cc4F)[C@H](C)C3)CC2)ccc1Nc1ncc(C(F)(F)F)c(N2CCC[C@](C)(O)C2)n1 (stereo partly drawn)	A (A (>75% o))	< 100 nM
Cc1cc(S(=O)(=O)NC2CC3(CCN(c4ccc(C5CCC(=O)NC5=O)c(Cl)c4)CC3)C2)ccc1Nc1ncc(C(F)(F)F)c(N2CCC[C@](C)(O)C2)n1 (stereo partly drawn)	D (D (<25%))	> 1000 nM
